This is a selection; strong and weak results do not stand in their true shares. Calls of active or inactive are those of the source.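 How the source made its calls: active means B-score above 5 SD of library B-scores, and initial fluorescence ratio not above library mean plus 5 SD; inactive means the rest.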

Sequences of proteins named here, by UniProt entry; tags and fusion partners are left off.
UniProt Q9QUQ5, whole entry: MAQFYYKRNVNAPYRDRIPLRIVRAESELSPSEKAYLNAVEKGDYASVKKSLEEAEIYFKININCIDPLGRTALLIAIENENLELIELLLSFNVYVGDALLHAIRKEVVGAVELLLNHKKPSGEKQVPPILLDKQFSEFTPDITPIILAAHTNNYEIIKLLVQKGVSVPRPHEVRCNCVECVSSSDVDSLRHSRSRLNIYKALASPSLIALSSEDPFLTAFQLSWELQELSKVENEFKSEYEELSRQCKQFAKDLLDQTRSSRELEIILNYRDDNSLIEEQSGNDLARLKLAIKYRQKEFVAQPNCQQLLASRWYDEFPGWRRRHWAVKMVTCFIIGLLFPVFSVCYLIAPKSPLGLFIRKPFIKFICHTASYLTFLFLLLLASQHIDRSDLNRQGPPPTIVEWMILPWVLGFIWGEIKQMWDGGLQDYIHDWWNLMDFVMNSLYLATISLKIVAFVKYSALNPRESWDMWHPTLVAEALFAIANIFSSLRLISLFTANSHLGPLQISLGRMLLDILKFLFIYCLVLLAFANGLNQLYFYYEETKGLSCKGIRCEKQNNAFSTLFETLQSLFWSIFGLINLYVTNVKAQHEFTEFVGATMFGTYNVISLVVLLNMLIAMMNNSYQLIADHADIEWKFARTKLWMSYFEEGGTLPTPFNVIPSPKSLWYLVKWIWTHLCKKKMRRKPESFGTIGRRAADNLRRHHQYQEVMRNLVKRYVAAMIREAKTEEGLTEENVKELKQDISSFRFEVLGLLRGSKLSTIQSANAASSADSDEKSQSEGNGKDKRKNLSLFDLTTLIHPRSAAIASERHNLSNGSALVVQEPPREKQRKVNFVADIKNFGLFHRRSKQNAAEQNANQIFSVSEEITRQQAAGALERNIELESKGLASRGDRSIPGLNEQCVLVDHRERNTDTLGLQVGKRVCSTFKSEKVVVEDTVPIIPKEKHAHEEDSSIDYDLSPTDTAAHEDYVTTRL

This assay addresses Short transient receptor potential channel 4 (Mus musculus) (UniProt Q9QUQ5). Description: activators of mouse TRPC4 channel, primary screen, Fluo4 calcium, HEK293 TRPC4beta/mu-opioid cells (AID 2237). As to conditions: Fluo4 calcium fluorescence, at 10 µM.
As for `COc1cc(OC)cc(C(=O)NCC2(N3CCCCC3)CCCCC2)c1`, the result was inactive. The entry for `Fc1ccccc1NC1CCN(Cc2ccccc2)CC1` is “inactive”. `Cc1ccc(C(=O)NCC2(N3CCCCC3)CCCCC2)o1`: the result was inactive. Under `CCN1CCC(Nc2cccc(F)c2)CC1` stands “inactive”. For the compound `CN(C)c1ccc(C(=O)NCC2(N3CCCCC3)CCCCC2)cc1`, the result was inactive. The entry for `CN1CCC(Nc2ccc(F)c(Cl)c2)CC1` is “inactive”; for `CCOc1ncccc1C(=O)NCC1(N2CCOCC2)CCCCC1` it is “inactive”; for `O=C(O)C1(Nc2ccccc2)CCN(Cc2ccccc2)CC1` it is “inactive”. Consider `CC(C)(C)OC(=O)N1CCC(Nc2ccccc2)CC1`, for which the outcome was inactive. Under `CCCOc1ccc(C(=O)NCC2(N(C)C)CCCCC2)cc1` stands “inactive”; under `COc1cccc(C(=O)N(c2cc(C)cc(C)c2)C2CCN(C(=O)OC(C)(C)C)CC2)c1`, “inactive”; under `COc1cc(OC)cc(C(=O)NCC2(N3CCOCC3)CCCCC2)c1`, “inactive”.

`CCC(CO)(C(=O)OC1CN2CCC1CC2)c1ccccc1` (centres undefined): the result was inactive. As to `CN1CCC(Nc2ccc(Cl)cc2)CC1`, the outcome was inactive.

Take `CCCOc1ccc(C)cc1CN(CCCl)CCCl`: the result was inactive. Under `COc1ccc(C(=O)NCC2(N3CCOCC3)CCCCC2)cc1OC` stands “inactive”; under `CCOC(=O)N1CCC(Nc2ccc(C)cc2)CC1`, “inactive”.

As for `N/C(=N\O)c1c(N)no[n+]1[O-]`, the result was inactive. The entry for `O=C(OC1CN2CCC1CC2)C1c2ccccc2C=Cc2ccccc21` (centres undefined) is “inactive”.

Take `CCc1cc(C(=O)NCC2(N3CCCCC3)CCCCC2)sc1C`: the outcome was inactive.

Consider `N#Cc1ccc(C(=O)NCC2(N3CCCCC3)CCCCC2)cc1`, for which the result was inactive.

Take `CC(C)(C)OC(=O)N1CCC(N(C(=O)c2ccccc2)c2ccc(Cl)cc2)CC1`: the outcome was inactive.

On to `CN(C)C1(CNC(=O)c2cccc(C#N)c2)CCCCC1`, for which the result was inactive. Under `CCCN1CCC(Nc2cc(OC)cc(OC)c2)CC1` stands “inactive”; under `c1ccc(CN2CCC(Nc3ccccc3)CC2)cc1`, “inactive”; under `O=C(NCC1(N2CCCCC2)CCCCC1)c1ccc(OC(F)F)cc1`, “inactive”. Regarding `N#CC1(Nc2ccccc2)CCN(CCc2ccccc2)CC1`, the result was inactive. The entry for `CCN1CCC(Nc2ccc(Cl)cc2)CC1` is “inactive”; for `O=C(NCC1(N2CCCCC2)CCCCC1)c1cccc([N+](=O)[O-])c1` it is “inactive”; for `O=C(NCC1(N2CCCCC2)CCCCC1)c1cccc(C(F)(F)F)c1` it is “inactive”. Under `O=C(NCC1(N2CCOCC2)CCCCC1)c1cc(=O)[nH]c2ccccc12` stands “inactive”. The entry for `COc1cc(C(=O)NCC2(N3CCCCC3)CCCCC2)ccc1OC(F)F` is “inactive”; for `COc1ccc(NC2CCN(C(=O)OC(C)(C)C)CC2)cc1` it is “inactive”. Regarding `CN1CCN(CCOC(=O)C(O)(c2ccccc2)c2ccccc2)CC1`, the outcome was inactive.

The values are drawn from PubChem BioAssay AID2237 (Johns Hopkins Ion Channel Center, 2010).
